Measurements from patent US5622969A, “Method of treating leukotriene caused diseases with N-benzyl dihydroindole LTD4 antagonists” (Eli Lilly and Company, priority 1995, dated 1997).

Columns and labels:
[1] = molecular target: T1, LTD4 receptor (guinea pig lung membrane) (Cavia porcellus, UniProt Q2NNR5); assay: Assay 3 - Guinea Pig Lung Membrane [3H] LTD4 Radioligand Binding (GPLM binding); settings: [3H] LTD4, guinea pig lung membrane, 30 min, 30° C., pH 6.5
T1 construct: guinea-pig lung membrane preparation; from tissue; host or cells: guinea pig lung membranes
T1 sequence (Q2NNR5 1-340): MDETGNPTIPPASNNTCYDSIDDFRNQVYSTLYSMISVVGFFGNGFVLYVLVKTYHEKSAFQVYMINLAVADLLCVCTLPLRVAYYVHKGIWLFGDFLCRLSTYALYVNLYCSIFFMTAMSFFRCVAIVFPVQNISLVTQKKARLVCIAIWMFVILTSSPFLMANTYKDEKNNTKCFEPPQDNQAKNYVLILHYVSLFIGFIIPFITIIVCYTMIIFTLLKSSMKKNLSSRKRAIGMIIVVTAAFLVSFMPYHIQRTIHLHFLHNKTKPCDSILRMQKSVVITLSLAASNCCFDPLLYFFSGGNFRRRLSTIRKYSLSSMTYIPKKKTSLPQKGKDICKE
Experimental: The compounds of the invention also antagonise LTD4 radioligand binding in guinea pig lung membranes in the test described by Saussy et al., Mol. […] Assay 3--Guinea Pig Lung Membrane [^3 H] LTD4 Radioligand Binding: [^3 H] LTD4 was purchased from New England Nuclear (Boston, Mass.). All other chemicals were purchased from Sigma (St. Louis, Mo.). Incubations were performed in silanised glass tubes and contained 30 mg of guinea-pig lung membrane preparation (Saussy, et al., Mol. […] The binding reaction was terminated after 30 min. at 30° C. by the addition of 4 ml ice cold wash buffer (25 mM Tris --HCl, pH 7.5), followed immediately by vacuum filtration over Whatman (GF/C glass fibre filters, using a Brandel (Gaithersburg, Md.) 48 place harvester. The tubes and filter were washed 3×4 ml in cold wash buffer. Retained radioactivity was determined by liquid scintillation counting at 50% counting efficiency using Ready Protein Plus cocktail (Beckman, Fullerton, Calif.). Data were analyzed using linear regression analysis of log-logit plots of the values between 10% and 90% of control biding to calculate I[…] and slope factors (pseudo-Hill coefficients). IC50 values were corrected for radioligand concentrations (Cheng and Prusoff, Biochem. Pharmacol. 22:3099-3108, 1973) to calculate Ki values.

[2] = molecular target: T2, leukotriene receptor (guinea pig trachea) (Cavia porcellus, UniProt Q2NNR5); assay: Assay 1 - Guinea Pig Tracheae, leukotriene receptor antagonism (LTD4 contraction); settings: antagonist added 45 minutes prior, read-out: GP trach (pKb) (converted)
T2 construct: Trachea were cut into ring segments and the epithelium removed; from tissue; host or cells: guinea pig tracheal rings, epithelium removed (male Hartley)
T2 sequence (Q2NNR5 1-340): T1 sequence (Q2NNR5 1-340)
Experimental: Assay 1--Guinea Pig Tracheae
Leukotriene receptor antagonism was evaluated in isolated smooth muscles by the following procedure:
Male Hartley guinea pigs weighing 250-400 grams were asphyxiated with CO2 and exsanguinated. Trachea were excised and placed in Krebs'-bicarbonate solution of the following composition in mM/liter: NaCl, 118.2; NaHCO3, 24.8; KCl, 4.6; KH2 PO4, 1.2, MgSO4.7H2 O, 1.2; dextrose, 10.0; CaCl2.2H2 O, 2.5; 1-cysteine, 3.0, and indomethacin, 3 μM. Trachea were cut into ring segments and the epithelium removed by gently rubbing the luminal surface with a cotton swab. Tracheal rings were placed on supports constructed from two 1 inch 30 gauge disposable stainless steel hypodermic needles (Hooker, et al., 1977, Blood Vessels 14:1-11), and transferred to organ baths containing Krebs' solution maintained at 37° C. and aerated with 95% O2 and 5% CO2. Isometric measurements were made with a Grass FTO3C force-displacement transducer and recorded on a Grass polygraph as changes in grams of force. […]
(§1) The contractions of trachea and ilea to LTD4 in the presence of the drug was compared to responses in the absence of drug. KB values were calculated by the method of Furchgott (Ann. N.Y. Acad. Sci., 139:553, 1967) using the following equation: KB =[Antagonist]/Dose-Ratio-1. […]

[3] = molecular target: T3, LTD4 receptor (intestinal smooth muscle receptors, guinea pig ileum) (Cavia porcellus, UniProt Q2NNR5); assay: Assay 2 - Guinea Pig Ileum, antagonism of LTD4 contraction; settings: drug added 30 minutes prior, read-out: GP ileum (pKb) (converted)
T3 construct: Terminal ilea were removed from the animals; from tissue; host or cells: guinea pig terminal ileum segments
T3 sequence (Q2NNR5 1-340): T1 sequence (Q2NNR5 1-340)
Experimental: Assay 2--Guinea Pig Ileum:
Guinea pig ileum was used to determine the potency of novel LTD4 receptor antagonists on intestinal smooth muscle receptors. Terminal ilea were removed from the animals exsanguinated after CO2 asphyxiation and cut into smaller segments of approximately 2 to 3 cm. Tissues were placed in organ baths containing Krebs'bicarbonate solution prepared without indomethacin and 1-cysteine and aerated with 95% O2 and 5% CO2. After a 60 minute equilibration period, 3 submaximal contractions to histamine (3×10^-6 M) were obtained on all tissues. A cumulative concentration-response curve to LTD4 was then generated using the method of Van Rossum (Arch. Int. Pharmacodyn. Ther. 143:299, 1963). Agonist was washed from the baths and the tissues permitted to recover. After a second LTD4 concentration-response curve was produced, the ilea were washed once again and permitted to re-equilibrate. Experimental drug was added to the baths 30 minutes prior to a final LTD4 concentration-response curve.
as §1

For `c1cc(CCc2nnn[nH]2)c2c(c1)CCN2Cc1ccc(OCc2ccc3ccccc3n2)cc1` [Example 8, 5-[2-[1-[4-(Quinolin-2-ylmethoxy)benzyl]-2,3-dihydroindol-7-yl]-ethyl]-1H-tetrazole], the “GPLM binding (pKi)” value [1] was 7.8, the Kb [2] was 3.89 nM and the Kb [3] was 5.5 nM.
